# Test results as given in ChEMBL document CHEMBL4513141, “CO-ADD screening of NIH (USA) - Clinical Collection” (2021).
# For part of these data: The strong results were mostly taken out for another list; the other results follow. Measured potencies and affinities stand elsewhere. Only a part is listed here, and it is no random draw.
# Experiments:
# [1] = tested on: Klebsiella pneumoniae; conditions: Concentration 20 uM; ASSAY_TEST Inhibition of Bacterial Growth; detection method Absorption (OD600); MEDIA CAMHB; plate type 384well; NBS; CORNING #3640; time 18 hr
# [2] = tested on: Candida albicans; conditions: 20 µM
# [3] = tested on: Cryptococcus neoformans; conditions: Concentration 20 uM; ASSAY_TEST Inhibition of Fungal Growth; detection method Resazurin; Absorption (OD600-OD570); plate type 384well; NBS; CORNING #3640
smiles,measurement,setting,value
COc1ccc(C[C@H](C)NC[C@@H](O)c2ccc(O)c(NC=O)c2)cc1.O.O.O=C(O)/C=C/C(=O)O,Inhibition,[1],16.2%
same,Inhibition,[2],3.55%
same,Inhibition,[3],-7.84%
